Experimental findings from PubChem BioAssay AID686978 (National Center for Advancing Translational Sciences (NCATS), 2013) are described below.

This is a selection; strong and weak results do not stand in their true shares. Records with an inconclusive call do not appear. Entries that show only a call come without a potency. Active and inactive are the calls of the source. Calls follow the shape of the dose curve; as a rule, active = well fitted inhibition curve with a large enough effect; inconclusive = small, poorly fitted or top-dose-only effect; inactive = flat fitted curve, though single readings scatter.
Potency is read from the fitted curve at half-maximal effect.

The assay in a line: qHTS for Inhibitors of human tyrosyl-DNA phosphodiesterase 1 (TDP1): qHTS in cells in absence of CPT. Also: nearly all actives have a fitted effect of over 55% in size. Particulars: DT40 Tdp1-/- hTDP1 cells, no CPT, ATP luminescence, 48 h; series mostly up to 46.2 µM. On the technique in general: qHTS replaces the single test concentration by a dilution series.
As for `CP(=S)(Nn1cnnc1)Oc1ccccc1` (stereo not given), the Potency entry is “inactive”. Next, `CP(=O)(Nc1ccccc1Br)Oc1ccccc1` (stereo not given): “inactive”; `COc1ccccc1OP(C)(=O)Nc1ccccc1` (stereo not given): “inactive”.

For `O=[N+]([O-])c1cc([N+](=O)[O-])c(O)c([N+](=O)[O-])c1.c1ccc(Oc2ccncc2)cc1`, the Potency entry is “inactive”. As to `CN(C)CCS`, the Potency result was “inactive”.

For `CCOP(C)(=S)SCC(=O)NC(C)C(=O)O` (stereo not given), the Potency result was “inactive”. Next, `CP(=O)(Nc1ccccn1)Oc1ccc(Cl)cc1` (stereo not given): “inactive”. For the compound `CP(=O)(Nc1ccc(SC(F)(F)F)cc1)Oc1ccc(Cl)cc1` (stereo not given), the Potency is active: 4.11 µM.

For `CP(=O)(Oc1ccccc1)OC(c1ccccc1)C(F)(F)F` (stereo not given), the Potency result is “inactive”. Next, `CP(=O)(NC(=O)Nc1ccccc1)Oc1ccccc1` (stereo not given): “inactive”; `CCc1ccc(OP(C)(=O)N2CCN(c3ccc([N+](=O)[O-])cc3)CC2)cc1` (stereo not given): active: 14.6 µM; `O=[N+]([O-])[O-].[NH4+]`: “inactive”. With `COc1ccccc1-c1ccccn1.O=[N+]([O-])c1cc([N+](=O)[O-])c(O)c([N+](=O)[O-])c1`, the Potency result was “inactive”. For `CCN(CC)CCCOC(=O)C(O)(c1ccccc1)c1ccccc1`, the Potency entry is “inactive”.

With `Cc1cc(C)cc(OP(C)(N)=O)c1` (stereo not given), the Potency entry was “inactive”. Regarding `COc1ccccc1OP(C)(=O)Nc1cc(Cl)ccc1C` (stereo not given), the Potency result is “inactive”. Next, `COc1ccc(OP(C)(=O)Nc2cccc(F)c2)cc1` (stereo not given): “inactive”; `O=[N+]([O-])c1cc([N+](=O)[O-])c(Nc2cccnc2)c([N+](=O)[O-])c1`: active: 11.6 µM; `O=[N+]([O-])c1ccc2c(c1)C=Nc1ccccc1O2`: active: 4.11 µM.

With `Cc1cccc(C)c1OP(C)(N)=O` (stereo not given), the Potency entry was “inactive”. Under `O=[N+]([O-])OCC(CO[N+](=O)[O-])(CO[N+](=O)[O-])CO[N+](=O)[O-]` stands “inactive”.

Consider `O=[N+]([O-])c1cccc([N+](=O)[O-])c1`, for which the Potency result is “inactive”. Next, `Cc1ccc(C)c(NP(C)(=O)Oc2ccccc2)c1` (stereo not given): “inactive”; `Cc1cc(C)cc(OP(C)(=O)Nc2ccccn2)c1` (stereo not given): “inactive”; `COc1ccccc1OP(C)(=O)Nc1cccc(Br)c1` (stereo not given): “inactive”. Under `Cc1cc(C)cc(OP(C)(=O)Nc2ccc(C)cc2C)c1` (stereo not given) stands “inactive”; under `O=[N+]([O-])c1cc([N+](=O)[O-])c(-c2cnn(-c3ccccc3)c2)c([N+](=O)[O-])c1`, active: 6.51 µM; under `Cc1nc2ccc3ccccc3c2s1.O=[N+]([O-])c1cc([N+](=O)[O-])c(O)c([N+](=O)[O-])c1`, “inactive”. Next, `O=[N+]([O-])c1cc([N+](=O)[O-])c(-n2nnc3ccccc32)c([N+](=O)[O-])c1`: “inactive”; `CC(C)N(CCCl)C(C)C`: “inactive”; `COc1ccccc1OP(C)(=O)Nc1c(C)cccc1C` (stereo not given): “inactive”. Take `COc1ccc(-c2ccccn2)cc1.O=[N+]([O-])c1cc([N+](=O)[O-])c(O)c([N+](=O)[O-])c1`: the Potency result was “inactive”.

Regarding `CCCOc1ccc(NP(C)(=O)Oc2ccc(Cl)cc2)cc1` (stereo not given), the Potency result was “inactive”. Under `CP(=O)(Nc1ccc(SC(F)(F)F)cc1)Oc1ccccc1` (stereo not given) stands active: 20.6 µM; under `CC1CCOC(=O)C=CC=CC(=O)OC2CC3OC4C5OC5(C)CCC4(COC(=O)C1O)C2(C)C31CO1` (stereo not given), active: 0.13 µM; under `O=[N+]([O-])c1ccc(OP2(=O)COCCO2)cc1` (stereo not given), “inactive”. Under `Cc1c(C(c2ccc3c(c2)OCO3)c2c(C)n(C)n(-c3ccccc3)c2=O)c(=O)n(-c2ccccc2)n1C.O=[N+]([O-])c1cc([N+](=O)[O-])c(O)c([N+](=O)[O-])c1` stands “inactive”; under `COc1ccc(OP(C)(=O)Nc2cccc(Br)c2)cc1` (stereo not given), “inactive”; under `CN(C)CCOC(=O)C(O)(c1ccccc1)C1CCCCC1` (stereo not given), “inactive”. Under `Cc1ccccc1NP(C)(=O)Nc1ccccc1C` stands “inactive”. Regarding `CCN(CCCl)Cc1ccccc1C`, the Potency entry was “inactive”. Under `O=[N+]([O-])c1cc([N+](=O)[O-])c(C(F)(F)F)c([N+](=O)[O-])c1O` stands “inactive”; under `CCOP(C)(=S)SCC(=O)NC(C)(CC)C(=O)O` (stereo not given), “inactive”; under `CCOP(=O)(CC)Oc1ccc([N+](=O)[O-])cc1` (stereo not given), “inactive”. Next, `CP(=O)(Nc1ccccc1F)Oc1ccccc1` (stereo not given): “inactive”. Under `Cc1c([N+](=O)[O-])cc([N+](=O)[O-])c(Br)c1[N+](=O)[O-]` stands active: 7.31 µM; under `CCN(CC)CCCOC(=O)C(O)(c1ccccc1)C1CCCCC1` (stereo not given), “inactive”.

Regarding `CP(=O)(Nc1ccccc1)Oc1ccc(F)cc1` (stereo not given), the Potency entry is “inactive”. Next, `CCCCCOc1ccc(NP(C)(=O)Oc2ccc(Cl)cc2Cl)cc1` (stereo not given): “inactive”; `Cc1cccc([N+](=O)[O-])c1[N+](=O)[O-]`: “inactive”; `CCCCCCCCCCCCCCCC1C[N+](C)(C)CCOP(C)(=O)O1` (stereo not given): active: 13 µM.

For `CP(=O)(OCCOc1ccccc1)OCCOc1ccccc1`, the Potency entry was “inactive”. Under `Cc1cc(C)cc(OP(C)(=O)Nc2cccc(C(F)(F)F)c2)c1` (stereo not given) stands “inactive”. Next, `COc1ccccc1OP(C)(=O)Nc1ccc(C)c(C)c1` (stereo not given): “inactive”. Turning to `COc1ccc(OP(C)(=O)Nc2ccccc2Br)cc1` (stereo not given), the Potency entry was “inactive”. Next, `Cc1c(NP(C)(=O)Oc2ccc(C(C)C)cc2)c(=O)n(-c2ccccc2)n1C` (stereo not given): “inactive”; `O=[N+]([O-])c1cc([N+](=O)[O-])c(Nc2ccccn2)c([N+](=O)[O-])c1`: active: 2.91 µM.

Take `CP(=O)(Nc1ccccn1)Oc1ccccc1` (stereo not given): the Potency result is “inactive”. Next, `COc1ccccc1OP(C)(=O)Nc1ccc(C)cc1C` (stereo not given): “inactive”. Next, `CCc1ccc(OP(C)(=O)O)cc1`: “inactive”. Regarding `COc1ccccc1OP(C)(=O)Nc1ccc(Br)cc1` (stereo not given), the Potency entry is “inactive”. `COc1ccc(OP(C)(=O)Nc2ccccn2)cc1` (stereo not given): the Potency result is “inactive”.

In the case of `CN(C)CCOC(=O)C(O)(c1ccccc1)C1CCCC1` (stereo not given), the Potency entry was “inactive”. Next, `COc1ccccc1OP(C)(=O)Nc1ccccc1Br` (stereo not given): “inactive”.

As for `CC(C)(C)c1ccc(OP(C)(=O)O)cc1`, the Potency entry was “inactive”. `CP(=O)(Nc1ccc(Cl)cc1)Oc1ccc(F)cc1` (stereo not given): the Potency result was “inactive”. Next, `CN(C)C(=O)c1c([N+](=O)[O-])cc([N+](=O)[O-])cc1[N+](=O)[O-]`: active: 2.91 µM; `COc1ccccc1OP(C)(=O)Nc1c(C)n(C)n(-c2ccccc2)c1=O` (stereo not given): “inactive”.

For `OCCSCCO`, the Potency result is “inactive”. Under `CC(C)OP(=O)(F)OC(C)C` stands “inactive”.
